Amino acid sequences for entries named in this document (tags omitted).
UniProt Q07820, whole entry: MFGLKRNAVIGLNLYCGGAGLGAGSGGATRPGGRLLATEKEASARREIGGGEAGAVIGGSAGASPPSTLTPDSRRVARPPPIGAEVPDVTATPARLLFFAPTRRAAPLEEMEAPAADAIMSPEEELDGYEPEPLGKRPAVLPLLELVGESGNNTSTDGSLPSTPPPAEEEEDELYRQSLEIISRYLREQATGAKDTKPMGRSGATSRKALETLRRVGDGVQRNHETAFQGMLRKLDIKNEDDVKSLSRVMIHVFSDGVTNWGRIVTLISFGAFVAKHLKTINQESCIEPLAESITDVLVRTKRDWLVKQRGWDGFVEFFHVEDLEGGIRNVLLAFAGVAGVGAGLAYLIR

According to PMC4707132 (Journal of medicinal chemistry, 2015):

Target: Mcl-1 (Homo sapiens, UniProt Q07820)
Test: fluorescence polarization competition assay
Type: binding
Conditions: competition with Noxa peptide

R-(-)-gossypol [AT-101, reference compound]
polarization on addition of compound: dose-dependent decrease in polarization
